Data as given in patent US20260232666A1, “COMPOSITIONS AND METHODS FOR INHIBITION OF RAS” (TheRas, Inc., priority 2023, published 2026).

Sequences of proteins named here, by UniProt entry; tags and fusion partners are left off. Residues count along the entry.
UniProt P01116, 1-169 isoform 2 C118S/G12C limits assumed: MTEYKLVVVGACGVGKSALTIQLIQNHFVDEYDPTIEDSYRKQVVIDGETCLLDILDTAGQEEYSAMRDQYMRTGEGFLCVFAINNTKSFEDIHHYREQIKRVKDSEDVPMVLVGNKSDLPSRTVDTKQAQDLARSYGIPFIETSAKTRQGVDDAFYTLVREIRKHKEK
UniProt P01116, 1-169 isoform 2 G12C limits assumed: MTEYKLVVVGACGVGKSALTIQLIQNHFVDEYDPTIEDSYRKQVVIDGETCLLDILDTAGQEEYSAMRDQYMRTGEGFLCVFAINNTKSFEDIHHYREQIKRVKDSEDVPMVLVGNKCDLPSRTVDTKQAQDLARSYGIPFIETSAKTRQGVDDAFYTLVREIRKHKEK

Assays:
[1] = molecular target: Avi-KRAS G12C (1-169) GppNHp/RAF1 RBD-3×FLAG (52-151) (Homo sapiens, UniProt P01116, G12C); assay: Raf1 RBD-KRAS G12C-GppNHp disruption assay (protein:protein interaction HTRF); details: read-out: Raf1-GppNHp-KRAS G12C disruption IC50
Method: Biological Example 2: Disrupting KRAS G12C-Effector Binding (Protein: Protein Interaction HTRF Assay)
A protein: protein interaction (PPI) Homogeneous Time Resolved Fluorescence (HTRF) assay was used to determine the effectiveness of compounds of the present disclosure in disrupting KRAS G12C protein and effector (RAF1 Ras Binding Domain (RBD)) binding.
The HTRF assay used the following reagents and proteins: 50 nM Avi-KRAS G12C (1-169) GppNHp/RAF1 RBD-3×FLAG (52-151); 35 nM Avi-PI3K RBD-3×FLAG; Assay Buffer: 50 mM Tris pH 7.5, 100 mM NaCl, 5 mM MgCl2, 0.1% BSA, 0.01% Tween 20, 10% DMSO; Bead Buffer: 50 mM Tris pH 7.5, 0.01% Tween 20; Assay volume: 20 μL (384 well plate-low volume format); and Compound titration: 30-0.02 μM, 3× dilution series.
The HTRF assay employed the following protocol:
Compounds were dispensed in assay plate (384-well, Grenier Bio-One #784075) using Echo (model 555) with dose response settings: 200 nL final volume, titration from 100 μM as a 10-point dilution series. KRAS proteins were prepared in assay buffer, and dispensed on plates, 5 μL per well, then incubated for 1 h at room temperature, with 700 rpm shaking. RAF1 RBD were prepared in assay buffer, dispensed onto plates, 5 μL per well, and then incubated for 1 h at room temperature, with 700 rpm shaking. Reagent mix was then prepared and dispensed on plates, 10 μL per well, and then incubated for 1 h at room temperature, with 700 rpm shaking.
Plates were analyzed on an Envision plate reader using the following setting: Excitation 320 nm, Bandwidth 75 nm; Emission 615 nm, Bandwidth 85 nm; Gain 100%; Flashes 100; Lag 60 μs. Data was reported as percentage of activity, with DMSO as 100%. Data was plotted and analyzed using Prism 8.
(§1) The percent of modification of GppNHp, GTP, or GDP loaded KRAS G12C by MALDI-TOF MS, biochemical Raf1 RBD-KRAS G12C-GppNHp disruption assay IC50, and pERK inhibition IC50 of selected compounds described herein are shown in Table 4. For percent of modification at 15 minutes (MALDI-TOF MS) of GppNHp, GTP, or GDP loaded KRAS G12C: A: percent of modification ≥70%; B: 50≤percent of modification <70%; C: 10%≤percent of modification <50%; D: percent of modification <10%. For Raf1 RBD-KRAS G12C-GppNHp disruption assay: A: IC50≤0.5 μM; B: 0.5 μM<IC50≤5 μM; C: 5 μM<IC50≤20 μM; D: IC50>20 μM. For pERK inhibition in H358 cell assay: A: IC50≤0.1 μM; B: 0.1 μM<IC50≤1 μM; C: IC50>1 μM. Blanks in the table represent that compound was not tested in the indicated assay.

[2] = molecular target: GTP-loaded KRAS4b (amino acids 1-169) G12C/C118S protein (Homo sapiens, UniProt P01116, C118S/G12C); assay: Covalent cysteine 12 modification by MALDI-TOF MS, GTP-loaded KRAS G12C; details: 15 minutes reaction time point
Method: (§2) Biological Example 1: Covalent Cysteine 12 Modification Analysis Using Matrix Assisted Laser Desorption Ionization-Time of Flight Mass Spectrometry (MALDI-TOF MS)
(§3) MALDI-TOF MS analysis was performed using 1 μM protein (KRAS G12C), and 1:2.5 protein to compound ratio.
(§4) Reaction: 1 μM of GppNHp, GTP, or GDP-loaded KRAS4b (amino acids 1-169) G12C/C118S protein (produced in-house by Protein Expression Laboratory, FNLCR/Leidos Biomed) in 20 mM 4-(2-hydroxyethyl)-1-piperazineethanesulfonic acid (HEPES) buffer containing 150 mM NaCl, 1 mM MgCl2, pH 7.3 was prepared freshly before assay. Twelve-μL aliquots of protein were dispensed onto low volume 384-well plate, then 30 nL of tested compounds from 1 mM DMSO stocks were added to appropriate wells using ECHO 555 acoustic liquid handler (Labcyte Inc.). For each reaction/assay, three blanks were prepared by mixing 12 μL of protein solution with 30 nL DMSO. The contents of the wells were carefully mixed by aspiration, and then each plate was sealed with an adhesive cover, centrifuged at 2000 g for 1 minute, and kept in the dark at room temperature until 5 min, 15 min, 30 min, 2 h, or 6 h collections.
(§5) Target pretreatment: Before each assay MALDI target (Bruker MPT 384 ground steel BC) was pre-treated by pipetting on each spot 0.75 μL of saturated sinapinic acid in acetonitrile (ACN).
(§6) Sample preparation: At collection time point, 2 μL of reaction mixtures were pipetted out into 15 μL MALDI matrix solution (saturated solution of sinapinic acid in 1:1 ACN:water solution containing 0.75% trifluoroacetic acid (TFA)) deposited on 384 well polypropylene plate. Resulting solution was mixed by aspiration, centrifuged at 2000 g for 1 minute, then 1.5 μL aliquots were dispensed on pre-treated MALDI target using Beckman Coulter Biomek FXP 96/384-Span-8 Laboratory Automation Workstation. Finally, the MALDI target was dried under mild vacuum to produce spots with fine crystalline structure.
(§7) Measurements: MALDI-TOF measurements were performed on a Bruker Daltonics rapiflex Tissuetyper TOF-TOF mass spectrometer using linear mode and mass range from 18.6 to 21.6 kDa. Detector gain was set to 3.3×(483 V), sample rate to 5 GS/s, real time smoothing to medium (175 MHz), laser smart beam pattern was set to: “MS Thin Layer M5”, and the laser frequency was 10000 Hz. Spectra were automatically collected using custom AutoXecute method. Laser power was auto adjusted using fuzzy control. The peak selection range was set to be between 19000 and 21500 Da. Peak evaluation uses half width parameter set to be smaller than 40 Da for processed spectrograms (centroid peak detection; smoothed by SavitzkyGolay algorithm using 7 m/z width and 2 cycles; baseline was subtracted using median algorithm with flatness 1 and median level 0.01). Fuzzy control used Proteins/Oligonucleotides protocol with minimum half width 1/10 times above threshold. Up to 40000 satisfactory shots were collected in 10000 shot steps. Dynamic termination was implemented to finish data collection when peak signal/noise ratio was reaching value of 50.
(§8) Spectra processing: Spectra were smoothed by SavitzkyGolay algorithm using 7 m/z width and three cycles. Centroid peak detection algorithm was used with signal to noise threshold set to 6, relative intensity threshold 4%, peak width 10 m/z and median baseline subtraction using flatness of 1 and median level of 0.01. Peak intensity and area under the peak were evaluated and recorded for all peaks between 19,300 Da and 21,550 Da.
(§9) Calculation of percent modification: Percent modification was calculated as a ratio of peak height for protein modified by compound to sum of peak height of remaining protein plus peak height for protein modified by compound. If multiple modifications were observed each was calculated as a ratio of peak height for given modification versus sum of peak heights for all observed protein species. Data reported in Table 4 are from 15 minutes reaction time point. […]

[3] = molecular target: GppNHp-loaded KRAS4b (amino acids 1-169) G12C/C118S protein (Homo sapiens, UniProt P01116, C118S/G12C); assay: Covalent cysteine 12 modification by MALDI-TOF MS, GppNHp-loaded KRAS G12C; details: 15 minutes reaction time point
Method: as §2, §3, §4, §5, §6, §7, §8, §9

[4] = molecular target: GDP-loaded KRAS4b (amino acids 1-169) G12C/C118S protein (Homo sapiens, UniProt P01116, C118S/G12C); assay: Covalent cysteine 12 modification by MALDI-TOF MS, GDP-loaded KRAS G12C; details: 15 minutes reaction time point
Method: as §2, §3, §4, §5, §6, §7, §8, §9

pERK in NCI-H358 cells = assay: Cell-based pERK HTRF assay (pERK inhibition in H358 cells); details: read-out: pERK in H358 cell IC50, 30 min incubation
Method: Biological Example 3: Cell-Based pERK HTRF Assay
pERK assays (Perkin Elmer) were used to determine the effectiveness of compounds of the present disclosure in disrupting KRAS G12C protein/effector signaling in cells.
On Day 1, cells (NCI-H358) were seeded into 96-well plates at 4×10^4 cells/well in complete growth media (RPMI, 10% FBS).
On Day 2, cells were treated with compounds at 0.25% DMSO. The source plate was created with compounds diluted in media at 5-fold the final assay concentration. The compounds were run in a 9-point concentration curve starting at 75 μM, with a 3-fold dilution between concentrations. 20 μL was transferred onto the cell plates (final volume in wells was 100 μL). Plates were harvested after 30 min incubation by aspirating media and adding kit-supplied 1× supplemented lysis buffer to all wells (75 μl per well). Plates were then placed on a plate shaker and incubated at 850 rpm for an additional 30 min.
Antibody mixture solution was prepared by diluting aliquoted d2 and Eu Cryptate antibodies 1:20 in kit supplied detection buffer, then mixed the diluted antibodies solutions (1:1 v:v). 4 μL of this solution was then added to a 384-well detection plate (Perkin Elmer; 6008230).
Samples were homogenized by pipetting up and down and then transferred (16 μL of cell lysates) from the 96-well cell culture plate to two wells of the HTRF 384-well detection plate containing the antibody solution. Plates were centrifuged (524 g for […]) and allowed to incubate between 4 and 24 h at room temperature. Maximum signal is reached after 4 h incubation time and remains stable over a period of 24 hours. Therefore, readings can be made between 4 and 24 h of incubation. Plates were centrifuged again (524 g for 1 min), and analyzed on the En Vision plate reader using the following settings: Excitation 320 nm, Bandwidth 75 nm; Emission 615 nm, Bandwidth 85 nm; Gain 100%; Flashes 100; Lag 60 μs.
as §1

Structure (SMILES): C=CC(=O)N1CC[C@@H](N(CC)c2nc(OC[C@@]34CCCN3C[C@H](F)C4)nc3c(F)c(-c4ccc(F)c5sc(N)c(C#N)c45)c(C(F)(F)F)cc23)[C@H]1C
- IC50 [1]: < 500 nM
- GTP-KRAS G12C percent of modification [2]: C (10%≤percent of modification <50%)
- GppNHp-KRAS G12C percent of modification [3]: B (50≤percent of modification <70%)
- GDP-KRAS G12C percent of modification [4]: C (10%≤percent of modification <50%)
- IC50 (pERK in NCI-H358 cells): < 100 nM

Structure (SMILES): C=CC(=O)N1CC[C@@H](N(C)c2nc(OC[C@@H]3CC4(CC4)CN3C)nc3c(F)c(-c4nc(N)cc(C)c4C(F)(F)F)c(C(F)(F)F)cc23)[C@H]1C
- IC50 [1]: < 500 nM
- GTP-KRAS G12C percent of modification [2]: B (50≤percent of modification <70%)
- GppNHp-KRAS G12C percent of modification [3]: A (percent of modification ≥70%)
- GDP-KRAS G12C percent of modification [4]: A (percent of modification ≥70%)
- IC50 (pERK in NCI-H358 cells): 100 to 1000 nM

Structure (SMILES): C=CC(=O)N1C[C@@H]2C[C@H]1CN2c1nc(OC[C@@]23CCCN2C[C@H](F)C3)nc2c(F)c(-c3ccc(F)c4sc(N)c(C#N)c34)c(C(F)(F)F)cc12
- IC50 [1]: < 500 nM
- GTP-KRAS G12C percent of modification [2]: D (percent of modification <10%)
- GppNHp-KRAS G12C percent of modification [3]: D (percent of modification <10%)
- GDP-KRAS G12C percent of modification [4]: B (50≤percent of modification <70%)
- IC50 (pERK in NCI-H358 cells): < 100 nM

Structure (SMILES): C=CC(=O)N1CC[C@@H](N(C)c2nc(OC[C@@H]3CC4(CC4)CN3CC)nc3c(F)c(-c4ccc(F)c5sc(N)c(C#N)c45)c(C(F)(F)F)cc23)[C@H]1C
- IC50 [1]: < 500 nM
- GTP-KRAS G12C percent of modification [2]: A (percent of modification ≥70%)
- GppNHp-KRAS G12C percent of modification [3]: A (percent of modification ≥70%)
- GDP-KRAS G12C percent of modification [4]: A (percent of modification ≥70%)
- IC50 (pERK in NCI-H358 cells): < 100 nM

Structure (SMILES): C=CC(=O)N1CC[C@@H](N(C)c2nc(OC[C@@]34CCCN3C[C@H](F)C4)nc3c(F)c(-c4nc(N)cc(C)c4C(F)(F)F)c(Cl)cc23)[C@@H]1C
- IC50 [1]: < 500 nM
- GTP-KRAS G12C percent of modification [2]: C (10%≤percent of modification <50%)
- GppNHp-KRAS G12C percent of modification [3]: B (50≤percent of modification <70%)
- GDP-KRAS G12C percent of modification [4]: A (percent of modification ≥70%)
- IC50 (pERK in NCI-H358 cells): < 100 nM

Structure (SMILES): C=CC(=O)N1CC[C@@H](N(CC)c2nc(OC[C@@]34CCCN3C[C@H](OC)C4)nc3c(F)c(-c4ccc(F)c5sc(N)c(C#N)c45)ccc23)[C@H]1C
- IC50 [1]: < 500 nM
- GTP-KRAS G12C percent of modification [2]: A (percent of modification ≥70%)
- GppNHp-KRAS G12C percent of modification [3]: A (percent of modification ≥70%)
- GDP-KRAS G12C percent of modification [4]: A (percent of modification ≥70%)
- IC50 (pERK in NCI-H358 cells): < 100 nM

Structure (SMILES): C=CC(=O)N1CC[C@@H](N(CC)c2nc(OC[C@]34CCCN3C[C@H](OC)C4)nc3cc(-c4ccc(F)c5sc(N)c(C#N)c45)c(F)cc23)[C@H]1C
- IC50 [1]: < 500 nM
- GTP-KRAS G12C percent of modification [2]: A (percent of modification ≥70%)
- GppNHp-KRAS G12C percent of modification [3]: A (percent of modification ≥70%)
- GDP-KRAS G12C percent of modification [4]: A (percent of modification ≥70%)
- IC50 (pERK in NCI-H358 cells): 100 to 1000 nM
